According to patent US20090292146A1, “[…] PRECURSOR FOR AN Rh COMPLEX […]” (Evonik Oxeno GmbH, priority 2006, published 2009):

Test: Solubility of catalyst precursors in various solvents (Rh concentration in the supernatant of a saturated solution)
Format: physicochemical
Settings: saturated solution warmed to about 60° C., stood overnight, filtered at room temperature

Substance | Solubility in mg/kg (mg of Rh/kg of solvent) (in isopropanol) | Solubility in mg/kg (mg of Rh/kg of solvent) (in propylene carbonate) | Solubility in mg/kg (mg of Rh/kg of solvent) (in toluene)
HRh(triphenylphosphine)3(CO) | 140 mg/kg (mg of Rh/kg of solvent) | 530 mg/kg (mg of Rh/kg of solvent) | 470 mg/kg (mg of Rh/kg of solvent)
rhodium nonanoate [Rh nonanoate] | 5100 mg/kg (mg of Rh/kg of solvent) | 30 mg/kg (mg of Rh/kg of solvent) | 19 000 mg/kg (mg of Rh/kg of solvent)
